Source: patent US20060258644A1, “Pyrrolobenzodiazepines and heteroaryl, aryl and cycloalkylamino ketone derivatives as follicle stimulating hormone receptor (FSH-R) antagonists” (Wyeth, priority 2005, published 2006)

Chains of the proteins cited; added tags and fusions are not shown. Residues count along the entry.
UniProt P16473, 21-764: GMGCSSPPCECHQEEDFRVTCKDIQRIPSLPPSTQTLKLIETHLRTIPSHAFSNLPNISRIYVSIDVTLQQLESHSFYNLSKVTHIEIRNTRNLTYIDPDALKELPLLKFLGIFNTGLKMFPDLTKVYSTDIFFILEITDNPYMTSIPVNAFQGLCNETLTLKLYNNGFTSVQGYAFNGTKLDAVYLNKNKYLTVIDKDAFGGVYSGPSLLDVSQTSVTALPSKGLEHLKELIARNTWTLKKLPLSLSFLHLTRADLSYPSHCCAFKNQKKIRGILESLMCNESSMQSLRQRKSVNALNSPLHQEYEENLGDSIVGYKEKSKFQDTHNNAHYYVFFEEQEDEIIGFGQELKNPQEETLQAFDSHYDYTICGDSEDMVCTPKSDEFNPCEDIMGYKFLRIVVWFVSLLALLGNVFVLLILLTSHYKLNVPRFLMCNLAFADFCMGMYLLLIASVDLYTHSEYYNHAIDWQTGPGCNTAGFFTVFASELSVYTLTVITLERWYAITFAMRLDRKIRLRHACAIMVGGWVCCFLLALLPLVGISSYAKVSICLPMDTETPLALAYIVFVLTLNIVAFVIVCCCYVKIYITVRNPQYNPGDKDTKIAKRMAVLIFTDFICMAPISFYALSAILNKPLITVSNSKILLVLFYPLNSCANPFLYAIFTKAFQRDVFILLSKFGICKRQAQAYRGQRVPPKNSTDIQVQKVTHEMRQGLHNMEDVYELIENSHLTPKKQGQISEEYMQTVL

Experiments:
Format in all cases: cell-based
hTSH-R = molecular target: T1, hTSH-R (Homo sapiens, UniProt P16473); assay: Selectivity study: cAMP accumulation in CHO-25 (hTSH-R) cells
T1 construct: expressed in transfected cells; host or cells: CHO-25 cells
Procedure: cAMP accumulation assays using CHO-25 (hTSH-R) cells were performed as described above for the CHO-3D2 cells with the following exceptions: CHO-25 cells were plated at a density of 50,000 cells/well (2). All test compounds were evaluated in a dose-response paradigm ranging from 0.01 to 30 μM. Controls and test compounds were evaluated in quadruplicate. Cells were treated with vehicle, hTSH at EC20 (5nM; hTSH>98% pure, Cortex Biochem, Inc.), or the compounds in the presence or absence of the hTSH at its EC20 concentration. The ability of the compounds to inhibit cAMP-accumulation induced by hTSH was evaluated by RIA.
Along with the test compounds, hTSH was also run as a positive control in the agonist mode using concentrations ranging from 0.01 μM-1000 l μM.
(§1) cAMP accumulation is expressed as fmol/ml. cAMP accumulation in the agonist mode, or the ability of the compound to inhibit hFSH-, hTSH-, or forskolin-induced cAMP-accumulation in the antagonist mode, was compared to the appropriate negative and positive controls. Data were analyzed by one-way analysis of variance and significant differences between treatments and control determined by Least Significant Difference test.

human FSH receptor = molecular target: T2, human FSH receptor (Homo sapiens, UniProt P23945); assay: FSH receptor-dependent CRE-luciferase reporter gene assay (CHO FSH-R 6CRE-Luc cells); conditions: positive control
T2 construct: host or cells: CHO-K1 (CHO FSH-R 6CRE-Luc, 1D7 cells)
T2 sequence (P23945 18-695): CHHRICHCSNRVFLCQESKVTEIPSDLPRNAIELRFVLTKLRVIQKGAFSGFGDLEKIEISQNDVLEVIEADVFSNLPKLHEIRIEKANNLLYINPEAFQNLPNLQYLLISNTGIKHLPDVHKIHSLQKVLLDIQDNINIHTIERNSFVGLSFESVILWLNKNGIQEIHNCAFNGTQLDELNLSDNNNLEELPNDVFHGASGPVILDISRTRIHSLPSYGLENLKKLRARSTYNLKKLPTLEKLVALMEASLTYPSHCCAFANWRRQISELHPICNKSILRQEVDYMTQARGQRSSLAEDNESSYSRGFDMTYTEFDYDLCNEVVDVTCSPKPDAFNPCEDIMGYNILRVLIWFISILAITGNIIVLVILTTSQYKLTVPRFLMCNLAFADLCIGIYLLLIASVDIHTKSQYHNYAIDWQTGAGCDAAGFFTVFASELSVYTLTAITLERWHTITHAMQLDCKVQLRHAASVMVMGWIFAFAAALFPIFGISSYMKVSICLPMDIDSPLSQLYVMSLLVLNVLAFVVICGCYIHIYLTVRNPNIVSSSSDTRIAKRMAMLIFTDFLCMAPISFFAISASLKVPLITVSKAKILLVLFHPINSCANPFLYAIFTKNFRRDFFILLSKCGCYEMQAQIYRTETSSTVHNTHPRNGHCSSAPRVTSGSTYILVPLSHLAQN
From the text: Follicle-Stimulating Hormone Receptor-Dependent CRE-Luciferase Reporter Gene Assay for the Identification of Follicle-Stimulating Hormone (FSH) Antagonists
This procedure was used to identify and determine the relative potencies of human FSH receptor antagonists using a Chinese hamster ovarian cell line that stably produces the human FSH receptor and a luciferase reporter gene regulated by cAMP response elements.
• Compound Vehicle: Stock compounds were solubilized in an appropriate vehicle, preferably phosphate buffered saline (PBS) or dimethyl sulfoxide (DMSO), at 30 mM. The compounds were subsequently diluted in DMSO to working dilutions of 1 and 20 or 30 mM for 2-dose testing format and 1 μM-10 mM for dose-response format. The DMSO dilutions were diluted 500-fold in sterile growth medium [D-MEM/F-12 (GIBCO/BRL; Grand Island N.Y.) containing 15 mM HEPES, 2 mM 1-glutamine, pyridoxine hydrochloride, phenol red and 5% FetalClone II (HyClone Laboratories, Inc; Logan, Utah), 0.2% DMSO, 100 units penicillin G/ml, and 100 μg streptomycin sulfate/ml (GIBCO/BRL)]. The concentration of the vehicle in each of the compound dilutions was the same. • Positive Controls: Purified human FSH (>98%) was purchased from Cortex Biochem, Inc. (San Leandro, Calif.) and WAY-162002 (an FSH-R thiazolidinone antagonist) was obtained from the Wyeth Research compound repository. Preparation of Cells […]

hFSH-R = molecular target: T3, hFSH-R (Homo sapiens, UniProt P23945); assay: cAMP accumulation bio-assay in CHO-3D2 cells (hFSH-R), RIA
T3 construct: expressed in transfected cells; host or cells: CHO-3D2 cells
T3 sequence (P23945 18-695): T2 sequence (P23945 18-695)
Procedure: In vitro Bio-Assay of Agonists and Antagonists to the FSH Repeptor. Selectivity and Dependency of Agonists and Antagonists to the FSH Receptor
This assay was used to verify in vitro potency, efficacy, selectivity and receptor dependency of hits found to inhibit an FSH-R-CRE-luciferase driven reporter.
Compound Vehicle: Stock compounds were solubilized in 100% DMSO (Sigma Chemical Co.) at a concentration of 30 mM. The compounds were subsequently diluted in sterile assay medium consisting of Opti-MEM® I (Life Technologies) with 0.1% (w/v) BSA (Sigma), prior to use in the bio-assay. The final concentration of DMSO in the assay is 0.1%.
The day prior to the experiment, CHO-3D2 cells (hFSH-R)(1) were plated into 96-well tissue culture plates (Falcon) at a density of 30,000 cells/well in DMEM/F12 medium (Life Technologies) supplemented with 5% Fetal Clone II (Hyclone), 2 mM L-glutamine (Life Technologies) and penicillin/streptomycin (100 U/ml, Life Technologies). Plated cells are then incubated at 37° C. in a humidified 5% CO2/95% air, atmosphere.
On the day of the assay, cells were washed three times with 100 μl/well of assay medium consisting of Opti-MEM® I (Life Technologies) with 0.1% (w/v) BSA (Sigma). Medium was removed and 100 μl of assay medium was added to each well. Plates were incubated for an additional 30 minutes at 37° C. Medium was then removed and cells were challenged for 30 minutes at 37° C. in 50 μl of assay media containing vehicle, purified hFSH (>95% pure; Cortex Biochem, Inc., San Leandro, Calif.) in the presence or absence of test compounds. Reactions were terminated by the addition of 50 μl of 0.2N hydrochloric acid to each well and cAMP-accumulation was measured by radioimmunoassay (RIA) using a commercially available kit (Amersham).
All test compounds were evaluated in a dose-response paradigm ranging from 0.01 to 30 μM. Controls and test compounds were evaluated in quadruplicate in a 96-well format. Cells were treated with vehicle, hFSH at EC20 (1.85 ng/mL is 53 pM), or the compounds in the presence or absence of hFSH at its EC20 dose. The ability of the compounds to inhibit the cAMP-accumulation induced by hFSH was evaluated by RIA.
In every assay the EC20 concentration was calculated and only those experiments in which the EC20 concentrations were equal to 1.85±0.4 ng/mL were accepted as valid. […]
as §1, with “test. […]” for “test.”

[1] = agonist mode, four-parameter logistic equation

Row | Substance | EC20, cAMP accumulation (hTSH-R) [nM] | EC50 in CRE-luciferase assay (human FSH receptor) [ng/mL] | EC100 in CRE-luciferase assay (human FSH receptor) [ng/mL] | EC20, cAMP accumulation (hFSH-R; 1.85 ng/mL expressed in pM) [pM] | apparent EC20, cAMP accumulation (hFSH-R; [1]) [ng/mL] | apparent EC50, cAMP accumulation (hFSH-R; [1]) [ng/mL] | apparent EC80, cAMP accumulation (hFSH-R; [1]) [ng/mL]
1 | hTSH: hTSH >98% pure, Cortex Biochem, Inc.; agonist control in selectivity assay | 5 |  |  |  |  |  | 
2 | hFSH: Purified human FSH (>98%) purchased from Cortex Biochem, Inc.; positive control |  | 0.4 | 1000 | 53 | 1.85 | 6.03 | 22.55
